Ki, EC50 and Selectivity data for seven molecules are collected here from US20180110824A1.

By UniProt entry, the sequences of proteins in these tests, tags left out.
UniProt Q92847, whole entry: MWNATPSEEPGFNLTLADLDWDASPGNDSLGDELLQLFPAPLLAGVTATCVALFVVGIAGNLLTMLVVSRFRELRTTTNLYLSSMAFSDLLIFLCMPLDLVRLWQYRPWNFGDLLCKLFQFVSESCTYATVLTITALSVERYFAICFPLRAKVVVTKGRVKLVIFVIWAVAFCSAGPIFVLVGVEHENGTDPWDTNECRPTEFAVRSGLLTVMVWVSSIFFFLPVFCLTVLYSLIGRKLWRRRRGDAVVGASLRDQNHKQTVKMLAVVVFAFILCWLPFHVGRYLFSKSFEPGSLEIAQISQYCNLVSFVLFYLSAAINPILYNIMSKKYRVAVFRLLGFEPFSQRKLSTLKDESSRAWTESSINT
UniProt O43193, whole entry: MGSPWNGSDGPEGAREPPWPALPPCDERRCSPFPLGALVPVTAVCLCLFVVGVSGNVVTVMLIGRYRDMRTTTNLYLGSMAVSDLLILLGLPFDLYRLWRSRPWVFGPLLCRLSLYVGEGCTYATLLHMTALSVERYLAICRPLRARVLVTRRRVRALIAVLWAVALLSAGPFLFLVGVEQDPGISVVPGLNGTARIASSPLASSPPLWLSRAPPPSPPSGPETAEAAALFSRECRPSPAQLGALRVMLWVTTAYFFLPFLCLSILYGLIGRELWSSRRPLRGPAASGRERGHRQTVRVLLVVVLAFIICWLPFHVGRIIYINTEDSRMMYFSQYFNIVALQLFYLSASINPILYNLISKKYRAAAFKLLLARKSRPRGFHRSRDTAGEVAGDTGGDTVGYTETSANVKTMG

Structures are written as SMILES. Like-named read-outs stand apart in the source and are kept apart here.

For assay [1], the target named is human growth hormone secretagogue receptor (hGHS-R1a) (Homo sapiens, UniProt Q92847). The experiment in a line: Competitive radioligand binding assay (ghrelin receptor), [125I]-ghrelin displacement on GHS-R/HEK 293 membranes.
Assay [2] addresses human ghrelin receptor (hGHS-R1a) (Homo sapiens, UniProt Q92847). The assay is classed as cell-based. The settings on record: Table 4; functional (agonist) activity; TFA salts unless otherwise noted.
The target of assay [3] is motilin receptor (Homo sapiens, UniProt O43193). The experiment in a line: Selectivity for the ghrelin receptor versus the motilin receptor.
The mark [4] stands for this setting: Table 3B, binding activity at the human ghrelin receptor.
Where [5] appears, read: Table 4, TFA salts unless otherwise noted.
The mark [6] stands for this setting: Binding activity at the human ghrelin receptor, [125I]-ghrelin displacement.
The mark [7] stands for this setting: read-out: Binding Activity at the Human Ghrelin Receptor (Ki), [125I]-ghrelin displacement, GHS-R/HEK 293 membranes, class symbols.

Turning to `C[C@@H]1C(=O)N[C@H](Cc2ccc(F)cc2)C(=O)NC[C@H]2C[C@H]2c2ccccc2OCCN[C@@H](C2CC2)C(=O)N1C` (single isomer, unassigned), the inhibition constant (Ki) in assay [1] (setting [4]) and in assay [1] (setting [5]) was 10 to 100 nM each time. The EC50 in assay [2] lay in the range of 100 to 1000 nM. In assay [3], the Selectivity is reported as 450/1.

In the case of `CC[C@H](C)[C@@H]1NCCCc2ccccc2C=CCNC(=O)[C@@H](Cc2ccccc2)NC(=O)[C@@H](C)N(C)C1=O`, the Ki in assay [1] (setting [6]) and in assay [1] (setting [5]) was 10 to 100 nM throughout. Besides, in assay [2], the EC50 fell in the range of 1 to 100 nM. For the same molecule, the Selectivity in assay [3] is listed as >800/1.

For the molecule `CC(C)[C@@H]1NCCOc2ccccc2/C=C/CNC(=O)[C@H](Cc2ccccc2)NC(=O)C2(CCOC2)NC1=O` (single isomer, unassigned), the inhibitory constant (Ki) in assay [1] (setting [6]) lay in the range of 100 to 1000 nM; in assay [1] (setting [4]), 10 to 100 nM; in assay [1] (setting [5]), 100 to 1000 nM. For the same molecule, the EC50 in assay [2] was in the range of 1 to 100 nM.

Turning to `CCC(C)C1NCCCc2ccccc2C=CCNC(=O)C(Cc2ccccc2)NC(=O)C(C)N(C)C1=O` (stereo not drawn), the Ki in assay [1] (setting [6]) and in assay [1] (setting [5]) was 10 to 100 nM in each case. Further, in assay [2], the concentration for a half-maximal effect (EC50) lay in the range of 100 to 1000 nM.

For `CCC(C)C1NCCOc2cccnc2CCCNC(=O)C(Cc2ccccc2)NC(=O)C(C)N(C)C1=O` (stereo not drawn), the Ki in assay [1] (setting [5]) and in assay [1] (setting [7]) was 10 to 100 nM in each case. Besides, the EC50 in assay [2] lay within 1 to 100 nM. In addition, in assay [3], the Selectivity is >100/1.

Take `CC[C@H](C)[C@@H]1NCCOc2ccc(C(=O)O)cc2CCCNC(=O)[C@@H](Cc2ccccc2)NC(=O)[C@@H](C)N(C)C1=O`: the Ki in assay [1] (setting [5]) and in assay [1] (setting [7]) was 100 to 1000 nM in each case. For the same molecule, in assay [2], the half-maximal effective concentration (EC50) is > 1000 nM. Moreover, in assay [3], the Selectivity is reported as 100/1.

Turning to `CC[C@H](C)[C@@H]1NC[C@H](C)Oc2ccccc2CCCNC(=O)[C@H](Cc2cccc(Cl)c2)NC(=O)C2(CCCC2)NC1=O`, the inhibition constant Ki in assay [1] (setting [4]) was in the range of 100 to 1000 nM; in assay [1] (setting [5]), 0.1 to 10 nM. The concentration giving a half-maximal response (EC50) in assay [2] is > 1000 nM. For the same molecule, the Selectivity in assay [3] is on record as 300/1.

Usually Ki stands for a dissociation constant, usually derived from enzyme kinetics or from competition with a known ligand. The EC50 is the midpoint of the concentration-response curve.
